In US10526385B2, “YAP protein inhibiting polypeptide and application thereof” (BAO KANG BIOMEDICAL HEALTHCARE INC, priority 2013, dated 2020):

Key:
[1] = system: hepatoma cell line HCCLM3; format: cell-based; conditions: Table 8; at a concentration of 1% in cell cultivating for 72 h; unit inferred
Description: (§1) The hepatoma cell line BEL7404 (purchased from The Chinese Academy of Sciences cell bank) was a cell line with high expression of YAP protein; HCCLM3 (purchased from The Chinese Academy of Sciences cell bank) was a cell line with low expression of YAP protein. The hepatoma cell lines (BEL7404 or HCCLM3) were inoculated into a 96-well plate at the concentration of 2000 cells/well, and incubated overnight in RPMI1640 containing 1% bovine serum at 37° C. The hepatoma cell lines were treated with polypeptides having different concentrations at 37° C. for 72 h.
(§2) Moreover, IC50 values of the cells in 1.1 were determined using CCK-8 kit.
(§3) The polypeptide represented by SEQ ID NO.:1 was further modified. The IC50 values of the polypeptides at a concentration of 1% in cell cultivating for 72 h were measured.

[2] = system: hepatoma cell line BEL7404; format: cell-based; conditions: Table 8; at a concentration of 1% in cell cultivating for 72 h; unit inferred
Description: as §1, §2, §3

## CCCC[C@@H]1NC(=O)[C@H](CCCCN)NC(=O)[C@H](CCCCN)NC(=O)[C@@H](NC(=O)[C@H](CC(C)C)NC(=O)[C@H](Cc2cccc(Cl)c2)NC(=O)[C@@H]2CCCN2C(=O)[C@@H](N)C(C)C)CCSSC[C@@H](C(=O)N2CCC[C@H]2C(=O)N2CCC[C@H]2C(=O)N[C@@H](CCCNC(=N)N)C(=O)N[C@@H](CCCNC(=N)N)C(=O)N[C@@H](CCSC)C(=O)N[C@@H](CCCCN)C(=O)N[C@@H](Cc2c[nH]c3ccccc23)C(=O)N[C@@H](CCCCN)C(=O)N[C@@H](CCCCN)C(=O)O)NC(=O)[C@H](CCCCN)NC(=O)[C@H](Cc2ccccc2)NC(=O)[C@H](CO)NC(=O)[C@H](C)NC(=O)[C@@H]2CCCN2C1=O [compound 32]
[1]
  IC50: 319 ± 17.5 µM
[2]
  IC50: 38.4 ± 3.8 µM
